Earlier results, collected in patent US20100135984A1, “Anti-inflammatory compositions and methods” (Searete LLC, a limited liability corporation of the State …, priority 2008, published 2010).

Protein sequences, listed by entry. Tags and fused reporters are not part of them. Residues count along the entry.
UniProt P10721, 26-976: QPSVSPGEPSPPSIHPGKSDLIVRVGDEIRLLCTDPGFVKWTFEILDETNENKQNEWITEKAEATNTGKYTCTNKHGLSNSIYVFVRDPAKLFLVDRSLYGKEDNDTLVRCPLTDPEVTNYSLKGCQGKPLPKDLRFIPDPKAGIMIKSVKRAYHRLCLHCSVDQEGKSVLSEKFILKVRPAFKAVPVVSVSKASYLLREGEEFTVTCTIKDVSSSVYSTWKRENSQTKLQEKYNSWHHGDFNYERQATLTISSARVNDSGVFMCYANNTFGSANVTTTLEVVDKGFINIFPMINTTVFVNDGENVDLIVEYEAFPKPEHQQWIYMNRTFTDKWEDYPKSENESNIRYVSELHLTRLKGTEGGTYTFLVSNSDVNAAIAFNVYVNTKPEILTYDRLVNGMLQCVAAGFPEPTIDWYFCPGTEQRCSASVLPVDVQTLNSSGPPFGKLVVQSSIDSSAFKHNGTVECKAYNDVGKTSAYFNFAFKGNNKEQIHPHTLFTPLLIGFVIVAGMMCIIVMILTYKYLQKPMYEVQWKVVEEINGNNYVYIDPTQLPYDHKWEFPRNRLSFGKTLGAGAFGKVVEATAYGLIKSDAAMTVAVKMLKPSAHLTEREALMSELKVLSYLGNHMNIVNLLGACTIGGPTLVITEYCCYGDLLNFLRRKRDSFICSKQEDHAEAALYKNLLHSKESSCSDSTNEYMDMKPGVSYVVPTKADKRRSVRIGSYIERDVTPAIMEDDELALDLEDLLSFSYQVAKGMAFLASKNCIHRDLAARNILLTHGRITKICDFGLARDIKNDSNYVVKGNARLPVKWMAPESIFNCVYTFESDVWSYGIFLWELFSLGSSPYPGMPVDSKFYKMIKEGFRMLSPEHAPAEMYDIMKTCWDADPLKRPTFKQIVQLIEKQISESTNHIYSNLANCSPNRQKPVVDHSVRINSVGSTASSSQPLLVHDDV
UniProt P09619, 33-1106, species assumed: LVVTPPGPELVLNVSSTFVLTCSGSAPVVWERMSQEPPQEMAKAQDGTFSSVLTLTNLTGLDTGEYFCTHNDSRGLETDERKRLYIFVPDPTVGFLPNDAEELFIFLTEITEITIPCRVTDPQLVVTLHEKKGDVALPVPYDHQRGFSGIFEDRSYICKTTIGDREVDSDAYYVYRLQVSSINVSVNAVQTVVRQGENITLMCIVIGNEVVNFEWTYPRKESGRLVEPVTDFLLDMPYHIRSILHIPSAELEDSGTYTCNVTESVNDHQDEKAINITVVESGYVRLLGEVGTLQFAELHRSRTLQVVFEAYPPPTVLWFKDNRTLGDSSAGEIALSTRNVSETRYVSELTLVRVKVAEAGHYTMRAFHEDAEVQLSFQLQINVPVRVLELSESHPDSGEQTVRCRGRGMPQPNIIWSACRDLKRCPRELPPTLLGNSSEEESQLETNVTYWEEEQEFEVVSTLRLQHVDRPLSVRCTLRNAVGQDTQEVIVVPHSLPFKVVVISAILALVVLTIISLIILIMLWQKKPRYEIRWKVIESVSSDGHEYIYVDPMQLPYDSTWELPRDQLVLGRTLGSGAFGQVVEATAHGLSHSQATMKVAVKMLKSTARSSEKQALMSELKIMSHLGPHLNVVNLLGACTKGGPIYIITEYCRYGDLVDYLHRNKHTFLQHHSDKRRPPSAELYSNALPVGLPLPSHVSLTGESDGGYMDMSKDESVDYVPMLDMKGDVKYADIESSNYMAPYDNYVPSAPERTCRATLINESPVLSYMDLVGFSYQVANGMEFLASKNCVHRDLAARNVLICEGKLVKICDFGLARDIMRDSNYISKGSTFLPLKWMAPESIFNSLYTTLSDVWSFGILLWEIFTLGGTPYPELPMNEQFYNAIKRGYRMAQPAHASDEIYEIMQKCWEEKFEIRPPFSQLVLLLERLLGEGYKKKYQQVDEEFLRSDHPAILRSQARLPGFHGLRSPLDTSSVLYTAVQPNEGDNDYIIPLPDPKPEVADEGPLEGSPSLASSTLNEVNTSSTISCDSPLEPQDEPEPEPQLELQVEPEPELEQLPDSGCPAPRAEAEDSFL

Experiments:
[1] = target: c-Kit (Homo sapiens, UniProt P10721); details: at nanomolar concentrations
[2] = target: PDGFRβ (Homo sapiens, UniProt P09619); details: at nanomolar concentrations

Cc1nc(Nc2ncc(C(=O)Nc3c(C)cccc3Cl)s2)cc(N2CCN(CCO)CC2)n1.O [dasatinib, N-(2-chloro-6-methylphenyl)-2-[[6-[4-(2-hydroxyethyl)-1-piperazinyl]-2-methyl-4-pyrimidinyl]amino]-5-thiazolecarboxamide, monohydrate]
inhibition of c-Kit [1]: inhibits
inhibition of PDGFRβ [2]: inhibits
